“And” between values parts separate entries of the source, which are not always exact repeats. Equal values may be shown once.

Chains of the proteins cited; added tags and fusions are not shown. Lines headed by an entry give the natural chain unless they say otherwise; changes in a name come on top.
UniProt Q99558: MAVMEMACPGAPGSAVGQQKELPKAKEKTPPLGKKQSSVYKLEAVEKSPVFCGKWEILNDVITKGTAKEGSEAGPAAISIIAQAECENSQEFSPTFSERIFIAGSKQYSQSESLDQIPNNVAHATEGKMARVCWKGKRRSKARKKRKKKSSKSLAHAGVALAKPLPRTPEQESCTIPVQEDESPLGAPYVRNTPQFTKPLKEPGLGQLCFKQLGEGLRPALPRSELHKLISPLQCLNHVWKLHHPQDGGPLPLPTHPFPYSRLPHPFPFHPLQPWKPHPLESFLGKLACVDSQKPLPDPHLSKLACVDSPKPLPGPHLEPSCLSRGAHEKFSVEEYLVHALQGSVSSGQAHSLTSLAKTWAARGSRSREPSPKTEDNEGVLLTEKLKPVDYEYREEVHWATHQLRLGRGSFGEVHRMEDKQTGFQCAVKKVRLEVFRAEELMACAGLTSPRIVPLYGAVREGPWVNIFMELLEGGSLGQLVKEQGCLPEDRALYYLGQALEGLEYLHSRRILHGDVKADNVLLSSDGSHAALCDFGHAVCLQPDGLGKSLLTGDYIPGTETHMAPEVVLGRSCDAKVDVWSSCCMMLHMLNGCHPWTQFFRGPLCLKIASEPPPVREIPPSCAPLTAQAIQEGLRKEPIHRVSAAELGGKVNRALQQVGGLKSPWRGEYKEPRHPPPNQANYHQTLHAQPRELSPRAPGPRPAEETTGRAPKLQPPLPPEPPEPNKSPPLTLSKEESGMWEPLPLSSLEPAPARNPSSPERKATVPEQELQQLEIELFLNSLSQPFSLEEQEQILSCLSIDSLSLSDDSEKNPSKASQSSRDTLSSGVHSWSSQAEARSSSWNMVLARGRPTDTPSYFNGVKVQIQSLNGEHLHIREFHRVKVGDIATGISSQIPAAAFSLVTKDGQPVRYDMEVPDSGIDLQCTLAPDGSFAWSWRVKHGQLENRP

Our source for the Ki values is patent US9034866B2 (Genentech, Inc., priority 2012, dated 2015).

The target in the test is nuclear factor-kappa B (NF-kB)-inducing kinase (NIK) (Homo sapiens (Human), UniProt Q99558). Description: NIK Enzyme Inhibition Assay (Transcreener ADP fluorescence polarization). It is filed as biochemical. The settings on record: read-out: NIK ADP-FP (Ki uM). The procedure: NIK Enzyme Inhibition Assay: The ability of the nuclear factor-kappa B (NF-kB)-inducing kinase (NIK) to catalyze the hydrolysis of adenosine-5′-triphosphate (ATP) was monitored using the Transcreener ADP (adenosine-5′-diphosphate) assay (BellBrook Labs). Purified NIK (0.2-1 nM) derived from a baculovirus-infected insect cell expression system was incubated with test compounds for 1-3.5 hours in 50 mM 2-[4-(2-hydroxyethyl)piperazin-1-yl]ethanesulfonic acid buffer (pH 7.2) containing 10 mM MgCl2, 2 mM dithiothreitol, 10 uM ATP, 0.01% Triton X-100, 0.1% gamma-globulins from bovine blood, 1% dimethylsulfoxide (DMSO), 12 ug/mL ADP antibody and 4 nM ADP-AlexaFluor® 633 tracer. Reactions were quenched by the addition of 20 mM 2,2′,2″,2′″-(ethane-1,2-diyldinitrilo)tetraacetic acid and 0.01% Brij 35. The tracer bound to the antibody was displaced by the ADP generated during the NIK reaction, which causes a decrease in fluorescence polarization that was measured by laser excitation at 633 nm with a Fluorescence Correlation Spectroscopy Plus reader (Evotec AG).
On the technique in general: Polarisation of emitted light reports the rotation of a fluorescent probe.
Broadly, the Ki is the equilibrium dissociation constant of an inhibitor or competing ligand from its target. As to `CN1CC[C@@](O)(C#Cc2cc3c(cc2F)OCCn2cc(C(N)=O)nc2-3)C1=O` [Example 263], the Ki was 0.00024 µM.
For the compound `CN1CC[C@](O)(C#Cc2cc3c(cc2F)OCCn2cc(C(N)=O)nc2-3)C1=O` [Example 264], the inhibitory constant (Ki) was found to be 0.21 µM.
Turning to `Cc1nnc([C@@](C)(O)C#Cc2ccc3c(c2)-c2nc(C(N)=O)sc2[C@](C)(F)CO3)o1` [Example 575, 4-(R)-fluoro-9-[3-(S)-hydroxy-3-(5-methyl-1,3,4-oxadiazol-2-yl)but-1-ynyl]-4-methyl-5H-[1]benzoxepino[5,4-d]thiazole-2-carboxamide], the Ki is > 1.2 µM and 0.53 µM.
